Test results reported in patent publication US20250206802A1.

By UniProt entry, the sequences of proteins in these tests, tags left out. Chains listed by the source or under a name are the forms on record and can include a tag or linker. Residues count along the entry.
UniProt P01137, 30-390 limits assumed, form in doubt: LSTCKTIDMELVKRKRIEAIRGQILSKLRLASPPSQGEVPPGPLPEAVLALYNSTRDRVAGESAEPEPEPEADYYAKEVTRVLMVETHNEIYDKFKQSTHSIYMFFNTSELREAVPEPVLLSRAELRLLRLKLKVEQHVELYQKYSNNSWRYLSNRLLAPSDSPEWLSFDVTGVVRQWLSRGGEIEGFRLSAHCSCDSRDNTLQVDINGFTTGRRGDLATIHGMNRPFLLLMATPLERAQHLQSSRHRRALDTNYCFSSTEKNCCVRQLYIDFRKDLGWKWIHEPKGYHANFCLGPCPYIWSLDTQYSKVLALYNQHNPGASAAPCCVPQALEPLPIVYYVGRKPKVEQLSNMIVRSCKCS

Target: purified pro-TGF-β1 (Homo sapiens (Human)) (UniProt P01137)
Test: Biacore (SPR)

Kd: 8.2 nM
Substance: αVβ6 headpiece (soluble, disulfide-linked: αv headpiece residues 1-594 with M400C and β6 headpiece residues 1-474 with I270C) (from UniProt P06756 31-625; P18564 18-491) (receptor)
